Structures are written as SMILES. This is one part of the list.

The test system of the test is A. baumannii ATCC 17978. The test can be described thus: relative growth (fraction of control); higher = less inhibition. The note with it: 50 µM.
Regarding `C[C@H]1CN([C@@H](C)CO)S(=O)(=O)c2ccc(-c3cncnc3)cc2O[C@@H]1CN(C)C(=O)C1CCCCC1`, the relative growth worked out at 0.923.
As to `CN1CCN(C(=O)C[C@@H]2CC[C@@H]3[C@H](COC[C@@H](O)CN3Cc3ccc4c(c3)OCO4)O2)CC1`, the relative growth worked out at 0.956.
The value for `Cc1noc(C)c1NC(=O)N(C)C[C@H]1Oc2cc(C#CCN(C)C)ccc2S(=O)(=O)N([C@@H](C)CO)C[C@@H]1C` was 1.02; that for `CN(C)CC(=O)N[C@H]1CC[C@H](CC(=O)NCCN2CCCCC2)O[C@@H]1CO` was 1.07; that for `C=C1NC(=O)CN1c1ccc(N)cc1` was 0.972.
In the case of `CO[C@@H](CN(C)C(=O)c1ccc2c(c1)OCO2)[C@H](C)CN([C@@H](C)CO)S(=O)(=O)c1ccc(C)cc1`, the relative growth turned out to be 0.984.
Regarding `O=C(NC1CCCCC1)N(CCCl)[NH2+][O-]`, the relative growth turned out to be 1.12.
`Nc1cc(N)nc(SCCC(=O)O)n1` yielded a relative growth of 1.16.
Molecule `O=C(C1=C[C@H](c2ccsc2)C[C@H](OCCCCO)O1)N1CCN(Cc2ccc3c(c2)OCO3)CC1` registered a relative growth of 1.14.
As for `Cn1cnc(CCNC(=O)C[C@@H]2CC[C@@H]3[C@H](COC[C@@H](O)CN3C(=O)C3CC3)O2)c1`, the relative growth is 0.957.
With `COCC(=O)N(C)C[C@@H]1Oc2cc(C#CCN(C)C)ccc2S(=O)(=O)N([C@@H](C)CO)C[C@@H]1C` the figure was 1.04.
`O=C(O)COCC(=O)NCc1ccco1` gave a relative growth of 0.963.
The value for `COc1ccc(NC(=O)N(C)C[C@H]2Oc3ncc(C#C[C@@H](C)O)cc3C(=O)N([C@@H](C)CO)C[C@@H]2C)cc1` was 1.13; that for `COC(=O)C[C@@H]1C(=O)NCCN1C(=O)NS(=O)(=O)c1ccc(C)cc1` was 1.11.
`COCC#Cc1ccc2c(c1)O[C@@H](CN(C)C(=O)C1CCOCC1)[C@H](C)CN([C@H](C)CO)S2(=O)=O` registered a relative growth of 1.03.
For the molecule `CCOC(=O)c1nnn(CC(N)=O)c1C`, the relative growth is 1.11.
`COc1cc(NC(C)CCCN)c2ncccc2c1.O=P(O)(O)O.O=P(O)(O)O` (stereo not given) came in with a relative growth of 1.06.
Regarding `COc1cccc(S(=O)(=O)N2C[C@H](O)COC[C@@H]3O[C@H](CC(=O)N4CCN(C)CC4)CC[C@H]32)c1`, the relative growth turned out to be 0.967.
With `Clc1ccccc1Nc1ccc(-c2ccncc2)s1` the figure was 1.09; with `CCOC(=O)CCC(=O)O[C@H]1[C@H](O[C@@H]2[C@@H](C)[C@H](O[C@H]3C[C@@](C)(OC)[C@@H](O)[C@H](C)O3)[C@@H](C)C(=O)O[C@H](CC)[C@@](C)(O)[C@H](O)[C@@H](C)C(=O)[C@H](C)C[C@@]2(C)O)O[C@H](C)C[C@@H]1N(C)C`, 0.214.
The value for `C=CCOC(=O)[C@@H]1[C@H]2C(=O)O[C@H](c3ccccc3)[C@H](c3ccccc3)N2[C@H](c2ccc(OCCOC(=O)[C@H]3C[C@H]4C(=O)N[C@@H](CCCCNC(C)=O)C(=O)N4[C@H]3c3cccc(OCCO)c3)cc2)[C@@]12C(=O)Nc1ccc(I)cc12` was 1.15.
Molecule `C[C@H]1CN([C@@H](C)CO)C(=O)c2cc(Br)cnc2O[C@H]1CN(C)S(=O)(=O)c1cccs1` came in with a relative growth of 0.966.
The value for `COc1ccc(C(=O)O)cc1` was 1.09.
With `CS(=O)(=O)Nc1ccc([N+](=O)[O-])cc1Oc1ccccc1` the figure was 0.927; with `COc1cccc(S(=O)(=O)N2C[C@H](O)COC[C@H]3O[C@@H](CC(=O)NCCCN4CCOCC4)CC[C@@H]32)c1`, 0.792; with `COC(=O)c1cn(C[C@@H](Cc2ccccc2)NC(=O)N[C@H](CO)CCc2oc(C(C)=O)c(C(=O)OC)c2C(=O)OC)nn1`, 0.837.
`CN(C)[C@@H]1C(O)=C(C(N)=O)C(=O)[C@@]2(O)C(O)=C3C(=O)c4c(O)cccc4[C@@](C)(O)[C@H]3[C@H](O)[C@@H]12.Cl`: the relative growth amounted to 0.201.
As to `COCCCNC(=O)[C@@]1(Sc2ccc(C)cc2)CC(=O)N(Cc2cc(C(F)(F)F)cc(C(F)(F)F)c2)[C@@H]1c1ccc(CO)cc1`, the relative growth is 0.98.
On to `CC(=O)N1CSC[C@H]1C(=O)O`, for which the relative growth is 0.964.
With `C[C@@H]1C[C@H](C)CN(Cc2nc3c(c(=O)n(C)c(=O)n3C)n2CC(N)=O)C1` the figure was 1.08; with `C[C@H](N)C(=O)O`, 1.03.
Regarding `O=C1NC2=C(C(=O)OC2)[C@H](c2ccccc2)N1`, the relative growth is 0.98.
`COc1ccc([C@@H]([C@H](Cc2ccccc2)OC(C)=O)N2C[C@@H]3C(=NO[C@H]3[C@@H](OC(C)=O)c3ccccc3)[C@@H]2Cc2ccccc2)cc1` showed a relative growth of 1.1.
The value for `C[C@H]1CN([C@@H](C)CO)C(=O)Cc2cc(NC(=O)Nc3ccc(Cl)c(Cl)c3)ccc2O[C@H]1CN(C)S(=O)(=O)c1ccc(Oc2ccccc2)cc1` was 0.997; that for `COc1ccc(COC[C@@]23Oc4ccccc4[C@@H](NC(=O)N2C)[C@H]3COC(=O)NCCCCCC(=O)NO)cc1` was 0.833.
In the case of `Cc1ccc([C@@H](CN)c2c[nH]c3ccccc23)o1`, the relative growth was found to be 0.988.
`Cn1cnc2c(C(F)(F)F)nc(N)nc21`: the relative growth was 0.924.
In turn, `C[N+](C)(C)CC(O)CC(=O)O.[Cl-]` (stereo not given) had a relative growth of 0.936.
`CO[C@@H]1CN(C)C(=O)c2cc(NC(=O)c3ccccc3)ccc2OC[C@H](C)N(C(=O)CN(C)C)C[C@@H]1C`: the relative growth was found to be 0.94.
Turning to `OCc1ccccc1`, the relative growth was 1.01.
The value for `Cc1ccc(S(=O)(=O)N[C@H]2CC[C@H](CC(=O)NCc3ccc(Cl)c(Cl)c3)O[C@@H]2CO)cc1` was 1.14.
Consider `O=C1NC[C@@H](c2ccccc2)OC(=O)[C@H](Cc2ccc(F)cc2)CCC=CC[C@@H]1CC(=O)N(CCO)Cc1ccccc1`, for which the relative growth is 0.951.
The value for `O=C(C[C@H]1CC[C@H]2[C@@H](COC[C@@H](O)CN2C(=O)Nc2ccc(F)cc2)O1)NCCCN1CCOCC1` was 1.13; that for `CN(C)CCc1c[nH]c2ccc(C[C@H]3COC(=O)N3)cc12` was 0.931.
`COc1ccccc1S(=O)(=O)N[C@@H]1C=C[C@H](CC(=O)N2CCN(C)CC2)O[C@H]1CO` yielded a relative growth of 1.05.
`COc1cc(/C=C/C(=O)O)ccc1O` yielded a relative growth of 0.971.
Regarding `Cc1c(C#N)c(Sc2ccccc2Cl)nc2ccccc12`, the relative growth is 1.05.
`NS(=O)(=O)c1cc2c(cc1Cl)NCNS2(=O)=O` registered a relative growth of 1.15.
With `COc1ccccc1CN1C(=O)c2ccccc2[C@](Cc2ccccc2I)(C(=O)NCC(F)(F)F)[C@@H]1c1ccc(CO)cc1` the figure was 0.979.
Molecule `Cc1cc(NC(=O)CSc2nnc[nH]2)no1` displayed a relative growth of 0.962.
In turn, `CC(C)(N)c1ccc(F)cc1` came in with a relative growth of 1.19.
In the case of `CNNCc1ccc(C(=O)NC(C)C)cc1`, the relative growth is 1.12.
With `Nc1ccc(C(=O)Oc2ccccc2)c(O)c1` the figure was 1.04; with `OCCN(CCO)c1nc2ccccc2[nH]1`, 0.971; with `C[C@H](CO)N1C[C@H](C)[C@@H](CN(C)C(=O)Nc2ccccc2C(F)(F)F)OCc2cnnn2CCCC1=O`, 1.1.
With `CSc1cc(-c2ccc(Cl)cc2)nc(-c2cccs2)c1` the figure was 1.17; with `C[n+]1cccc(C(=O)[O-])c1`, 1.07.
As to `Clc1cccc(Cl)c1CSCc1cc2ccccc2o1`, the relative growth is 1.02.
Molecule `O=C(CN1CCOCC1)N[C@H]1CC[C@H](CCNC(=O)Nc2cc(F)ccc2F)O[C@H]1CO` returned a relative growth of 0.813.
With `COc1cccc(C#Cc2ccc3c(c2)O[C@H](CN(C)C(=O)c2ccccn2)[C@H](C)CN([C@H](C)CO)S3(=O)=O)c1` the figure was 1.14; with `Cc1cc(C)n(C(=O)Cn2cc([N+](=O)[O-])cn2)n1`, 0.842.
The value for `CCSc1nc(-c2ccc(C)cc2)cc(C(F)(F)F)c1C#N` was 1.01.
`COc1ncnc(OC)c1C` registered a relative growth of 1.16.
`O=C(O)C[C@H]1Oc2ccccc2NC1=O` returned a relative growth of 1.15.
As to `COc1ccc(-c2cnc3c(c2)C(=O)N([C@H](C)CO)C[C@@H](C)[C@H](CN(C)C(=O)Cc2ccncc2)O3)cc1`, the relative growth is 0.989.
`C[C@@H]1CN([C@H](C)CO)S(=O)(=O)c2ccc(C#CCN(C)C)cc2O[C@@H]1CN(C)C(=O)c1ccccc1F`: the relative growth is 1.11.
Consider `O=C(N[C@@H]1CC[C@H](CCNS(=O)(=O)c2ccc(F)cc2)O[C@@H]1CO)C1CC1`, for which the relative growth turned out to be 0.902.
With `CC(=O)N(C)[C@H]1C(=O)C(=O)c2ccccc2C1=O`, the relative growth was 1.04.
As to `O=C(O)c1cc(O)c2c(c1)[C@H]([C@H]1c3cc(C(=O)O)cc(O)c3C(=O)c3c(O[C@@H]4O[C@H](CO)[C@@H](O)[C@H](O)[C@H]4O)cccc31)c1cccc(O[C@@H]3O[C@H](CO)[C@@H](O)[C@H](O)[C@H]3O)c1C2=O`, the relative growth came to 0.922.
The molecule `CN(C)CCC[C@@]1(c2ccc(F)cc2)OCc2cc(C#N)ccc21.O=C(O)C(=O)O` gave a relative growth of 0.929.
With `CC(=O)Nc1ccc(S(=O)(=O)Nc2onc(C)c2C)cc1` the figure was 1.12; with `CC(C)CC#Cc1ccc2c(c1)O[C@@H](CN(C)C(=O)C1CCOCC1)[C@@H](C)CN([C@@H](C)CO)S2(=O)=O`, 0.922; with `CC(c1cc2ccccc2s1)N(O)C(N)=O` (stereo not given), 1.21.
For `Clc1ccc([C@H]2CC(C3CC3)=NN2c2ccccc2)cc1`, the relative growth was 1.05.
The value for `Cc1ccc(S(=O)(=O)NCC[C@@H]2CC[C@@H](NS(=O)(=O)c3ccccc3Cl)[C@@H](CO)O2)cc1` was 0.971.
`O=C(C[C@H]1C[C@H]2c3cc(NS(=O)(=O)c4ccc(F)cc4)ccc3O[C@H]2[C@@H](CO)O1)NCC(F)(F)F` showed a relative growth of 1.11.
Regarding `Cc1cc(C)n(N)c(=O)c1C(=O)O`, the relative growth is 0.869.
The value for `C[C@@H]1CN([C@H](C)CO)C(=O)CCCn2cc(nn2)CO[C@H]1CN(C)C(=O)Nc1ccc2c(c1)OCCO2` was 1.18; that for `NC(=O)c1ncn([C@@H]2O[C@H](CO)[C@@H](O)[C@H]2O)c1N` was 1.03; that for `COc1ccc(C2Sc3ccccc3N(CCN(C)C)C(=O)C2OC(C)=O)cc1.Cl` (stereo not given) was 1.08.
With `C[C@H]1CN([C@@H](C)CO)S(=O)(=O)c2ccc(/C=C/c3ccccc3)cc2O[C@H]1CN(C)C(=O)CN1CCOCC1`, the relative growth worked out at 0.892.
Molecule `CC1=CC(=O)CC(C)(C)C1(O)/C=C/C(C)=C\C(=O)O` (mixture of isomers) [ABSCISIC ACID (cis,trans; +/-)] showed a relative growth of 1.09.
With `O=C(C[C@@H]1C=C[C@@H](NC(=O)Nc2ccc3c(c2)OCO3)[C@@H](CO)O1)NCCCN1CCOCC1` the figure was 0.956; with `CCOC(=O)c1c(C)n[nH]c1N`, 1.21; with `CC[C@@]1(C)CC(=O)NC1=O`, 1.04.

The values are drawn from published antibiotic growth screens (doi:10.1038/s41589-023-01349-8).
